Data reported in patent US20260382623A1, “NOVEL COMPOUND FOR INHIBITING PROTEIN KINASES AND PHARMACEUTICAL COMPOSITION COMPRISING SAME” (published 2026).

Sequences of proteins named here, by UniProt entry; tags and fusion partners are left off. Residues count along the entry.
UniProt P10721, 26-976 limits assumed: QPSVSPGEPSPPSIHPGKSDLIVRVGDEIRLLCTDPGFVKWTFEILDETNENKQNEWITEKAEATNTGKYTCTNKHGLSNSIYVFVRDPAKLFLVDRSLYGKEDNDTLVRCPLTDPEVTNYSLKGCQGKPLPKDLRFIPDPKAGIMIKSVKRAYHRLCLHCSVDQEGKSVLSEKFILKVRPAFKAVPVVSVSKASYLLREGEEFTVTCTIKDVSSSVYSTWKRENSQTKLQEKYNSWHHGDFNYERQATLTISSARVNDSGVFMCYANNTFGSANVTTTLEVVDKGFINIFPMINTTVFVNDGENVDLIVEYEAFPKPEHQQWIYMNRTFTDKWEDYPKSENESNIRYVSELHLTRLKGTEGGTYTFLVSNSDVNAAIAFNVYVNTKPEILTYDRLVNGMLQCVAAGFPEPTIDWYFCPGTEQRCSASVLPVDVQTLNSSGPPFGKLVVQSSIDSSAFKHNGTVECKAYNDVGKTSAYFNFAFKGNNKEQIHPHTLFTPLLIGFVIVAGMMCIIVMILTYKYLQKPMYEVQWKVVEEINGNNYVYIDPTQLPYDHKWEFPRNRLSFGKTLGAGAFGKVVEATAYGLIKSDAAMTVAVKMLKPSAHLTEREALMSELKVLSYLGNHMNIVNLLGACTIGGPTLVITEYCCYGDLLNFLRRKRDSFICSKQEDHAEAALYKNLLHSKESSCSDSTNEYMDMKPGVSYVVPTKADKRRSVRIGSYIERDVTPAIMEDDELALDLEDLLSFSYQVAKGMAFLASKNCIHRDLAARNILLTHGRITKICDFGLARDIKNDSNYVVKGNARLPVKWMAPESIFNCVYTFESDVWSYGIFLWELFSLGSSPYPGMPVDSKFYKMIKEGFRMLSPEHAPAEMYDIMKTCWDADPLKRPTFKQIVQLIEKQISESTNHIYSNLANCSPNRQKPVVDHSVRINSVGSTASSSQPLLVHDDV
UniProt P42685, whole entry: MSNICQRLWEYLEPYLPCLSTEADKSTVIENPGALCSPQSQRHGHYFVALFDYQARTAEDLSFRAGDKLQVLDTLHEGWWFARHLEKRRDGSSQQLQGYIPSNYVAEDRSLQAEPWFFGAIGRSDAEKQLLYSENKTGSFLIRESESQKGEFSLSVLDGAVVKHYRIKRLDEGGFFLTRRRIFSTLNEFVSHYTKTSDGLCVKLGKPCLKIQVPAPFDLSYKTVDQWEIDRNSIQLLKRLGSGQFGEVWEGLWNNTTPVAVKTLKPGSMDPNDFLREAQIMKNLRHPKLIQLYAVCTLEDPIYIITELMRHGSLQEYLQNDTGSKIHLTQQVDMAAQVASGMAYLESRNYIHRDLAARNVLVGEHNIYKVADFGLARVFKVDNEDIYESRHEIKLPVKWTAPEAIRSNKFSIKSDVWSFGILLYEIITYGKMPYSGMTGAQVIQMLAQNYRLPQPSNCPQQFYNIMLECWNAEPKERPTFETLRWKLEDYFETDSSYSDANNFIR
UniProt Q02763, 23-1124 limits assumed: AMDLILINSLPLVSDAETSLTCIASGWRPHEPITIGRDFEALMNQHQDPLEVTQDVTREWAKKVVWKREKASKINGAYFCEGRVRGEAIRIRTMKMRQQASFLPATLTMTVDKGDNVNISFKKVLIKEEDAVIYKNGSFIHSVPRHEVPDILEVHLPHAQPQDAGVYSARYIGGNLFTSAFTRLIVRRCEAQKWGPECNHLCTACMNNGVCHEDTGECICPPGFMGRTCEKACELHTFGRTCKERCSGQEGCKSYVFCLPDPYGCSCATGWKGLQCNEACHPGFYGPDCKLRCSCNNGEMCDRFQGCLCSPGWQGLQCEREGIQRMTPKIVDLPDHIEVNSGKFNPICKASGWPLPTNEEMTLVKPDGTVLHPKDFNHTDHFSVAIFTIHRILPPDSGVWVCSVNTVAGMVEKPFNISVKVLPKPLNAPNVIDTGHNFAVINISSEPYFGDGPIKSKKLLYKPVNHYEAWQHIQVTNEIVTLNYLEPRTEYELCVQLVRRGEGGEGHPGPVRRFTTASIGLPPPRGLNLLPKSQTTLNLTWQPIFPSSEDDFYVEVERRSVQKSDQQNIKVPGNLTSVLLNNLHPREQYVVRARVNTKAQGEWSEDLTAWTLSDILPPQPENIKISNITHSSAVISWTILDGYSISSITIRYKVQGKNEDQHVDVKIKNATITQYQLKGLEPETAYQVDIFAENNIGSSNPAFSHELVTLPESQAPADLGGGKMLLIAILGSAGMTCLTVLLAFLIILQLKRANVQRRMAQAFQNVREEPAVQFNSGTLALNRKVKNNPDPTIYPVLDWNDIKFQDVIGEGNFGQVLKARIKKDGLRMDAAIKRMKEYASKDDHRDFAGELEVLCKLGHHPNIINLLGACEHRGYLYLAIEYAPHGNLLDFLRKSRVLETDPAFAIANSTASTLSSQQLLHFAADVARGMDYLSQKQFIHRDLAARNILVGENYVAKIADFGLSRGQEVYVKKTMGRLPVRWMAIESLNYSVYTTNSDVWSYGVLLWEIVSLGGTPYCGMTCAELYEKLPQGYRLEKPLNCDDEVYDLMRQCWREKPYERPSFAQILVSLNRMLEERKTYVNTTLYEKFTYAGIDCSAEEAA
UniProt Q13470, whole entry: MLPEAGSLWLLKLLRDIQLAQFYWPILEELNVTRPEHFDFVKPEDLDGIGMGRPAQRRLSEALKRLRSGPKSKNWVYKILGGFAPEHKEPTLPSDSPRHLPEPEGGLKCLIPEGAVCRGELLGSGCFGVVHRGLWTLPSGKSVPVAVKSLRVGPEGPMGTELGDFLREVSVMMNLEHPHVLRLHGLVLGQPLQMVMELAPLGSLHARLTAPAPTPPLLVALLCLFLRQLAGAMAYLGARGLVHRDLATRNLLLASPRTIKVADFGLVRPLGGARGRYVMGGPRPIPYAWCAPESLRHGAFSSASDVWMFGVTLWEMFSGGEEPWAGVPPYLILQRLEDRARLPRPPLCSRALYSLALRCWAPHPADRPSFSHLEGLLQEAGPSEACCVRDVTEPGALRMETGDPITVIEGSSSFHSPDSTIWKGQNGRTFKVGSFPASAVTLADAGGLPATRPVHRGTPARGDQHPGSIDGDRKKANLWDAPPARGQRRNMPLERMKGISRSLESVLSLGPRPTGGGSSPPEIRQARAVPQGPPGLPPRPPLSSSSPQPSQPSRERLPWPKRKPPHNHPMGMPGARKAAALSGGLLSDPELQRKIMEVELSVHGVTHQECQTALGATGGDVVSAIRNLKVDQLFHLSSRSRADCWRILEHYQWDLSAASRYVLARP
UniProt Q15569, whole entry: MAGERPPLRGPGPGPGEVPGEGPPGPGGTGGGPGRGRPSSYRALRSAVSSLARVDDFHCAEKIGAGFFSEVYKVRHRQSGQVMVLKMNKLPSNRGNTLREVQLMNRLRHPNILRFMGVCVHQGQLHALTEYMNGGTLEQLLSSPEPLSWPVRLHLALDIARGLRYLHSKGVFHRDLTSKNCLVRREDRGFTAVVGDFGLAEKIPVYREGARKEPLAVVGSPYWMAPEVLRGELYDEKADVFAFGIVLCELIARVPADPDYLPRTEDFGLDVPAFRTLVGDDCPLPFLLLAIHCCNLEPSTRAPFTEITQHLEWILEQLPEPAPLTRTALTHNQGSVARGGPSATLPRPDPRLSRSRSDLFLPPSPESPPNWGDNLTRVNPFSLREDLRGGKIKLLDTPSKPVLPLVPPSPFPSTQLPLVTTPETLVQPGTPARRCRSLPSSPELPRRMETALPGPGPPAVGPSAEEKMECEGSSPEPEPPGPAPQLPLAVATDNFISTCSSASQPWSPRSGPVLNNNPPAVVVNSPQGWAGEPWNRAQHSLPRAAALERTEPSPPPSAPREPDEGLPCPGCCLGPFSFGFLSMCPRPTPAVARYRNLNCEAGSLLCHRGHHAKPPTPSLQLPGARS
UniProt Q16620, 32-822 limits assumed: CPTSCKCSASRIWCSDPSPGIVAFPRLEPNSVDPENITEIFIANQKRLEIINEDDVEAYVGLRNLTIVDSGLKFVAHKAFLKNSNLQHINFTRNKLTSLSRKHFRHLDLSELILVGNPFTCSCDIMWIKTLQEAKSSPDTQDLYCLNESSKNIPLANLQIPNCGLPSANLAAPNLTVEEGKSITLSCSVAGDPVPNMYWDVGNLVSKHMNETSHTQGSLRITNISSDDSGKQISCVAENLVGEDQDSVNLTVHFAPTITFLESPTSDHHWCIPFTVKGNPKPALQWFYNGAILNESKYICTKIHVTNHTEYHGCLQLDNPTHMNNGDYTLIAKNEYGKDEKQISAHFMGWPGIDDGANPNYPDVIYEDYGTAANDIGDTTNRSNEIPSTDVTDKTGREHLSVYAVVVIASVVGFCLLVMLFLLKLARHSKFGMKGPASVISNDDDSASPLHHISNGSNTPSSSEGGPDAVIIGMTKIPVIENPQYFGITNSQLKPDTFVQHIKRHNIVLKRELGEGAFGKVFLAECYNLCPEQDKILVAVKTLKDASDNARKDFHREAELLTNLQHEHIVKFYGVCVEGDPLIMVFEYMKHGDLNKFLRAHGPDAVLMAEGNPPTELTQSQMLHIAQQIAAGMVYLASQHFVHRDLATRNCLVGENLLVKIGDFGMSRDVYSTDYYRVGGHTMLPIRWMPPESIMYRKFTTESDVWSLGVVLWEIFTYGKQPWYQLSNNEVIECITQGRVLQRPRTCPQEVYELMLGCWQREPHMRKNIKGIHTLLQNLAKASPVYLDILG
UniProt Q7L7X3, whole entry: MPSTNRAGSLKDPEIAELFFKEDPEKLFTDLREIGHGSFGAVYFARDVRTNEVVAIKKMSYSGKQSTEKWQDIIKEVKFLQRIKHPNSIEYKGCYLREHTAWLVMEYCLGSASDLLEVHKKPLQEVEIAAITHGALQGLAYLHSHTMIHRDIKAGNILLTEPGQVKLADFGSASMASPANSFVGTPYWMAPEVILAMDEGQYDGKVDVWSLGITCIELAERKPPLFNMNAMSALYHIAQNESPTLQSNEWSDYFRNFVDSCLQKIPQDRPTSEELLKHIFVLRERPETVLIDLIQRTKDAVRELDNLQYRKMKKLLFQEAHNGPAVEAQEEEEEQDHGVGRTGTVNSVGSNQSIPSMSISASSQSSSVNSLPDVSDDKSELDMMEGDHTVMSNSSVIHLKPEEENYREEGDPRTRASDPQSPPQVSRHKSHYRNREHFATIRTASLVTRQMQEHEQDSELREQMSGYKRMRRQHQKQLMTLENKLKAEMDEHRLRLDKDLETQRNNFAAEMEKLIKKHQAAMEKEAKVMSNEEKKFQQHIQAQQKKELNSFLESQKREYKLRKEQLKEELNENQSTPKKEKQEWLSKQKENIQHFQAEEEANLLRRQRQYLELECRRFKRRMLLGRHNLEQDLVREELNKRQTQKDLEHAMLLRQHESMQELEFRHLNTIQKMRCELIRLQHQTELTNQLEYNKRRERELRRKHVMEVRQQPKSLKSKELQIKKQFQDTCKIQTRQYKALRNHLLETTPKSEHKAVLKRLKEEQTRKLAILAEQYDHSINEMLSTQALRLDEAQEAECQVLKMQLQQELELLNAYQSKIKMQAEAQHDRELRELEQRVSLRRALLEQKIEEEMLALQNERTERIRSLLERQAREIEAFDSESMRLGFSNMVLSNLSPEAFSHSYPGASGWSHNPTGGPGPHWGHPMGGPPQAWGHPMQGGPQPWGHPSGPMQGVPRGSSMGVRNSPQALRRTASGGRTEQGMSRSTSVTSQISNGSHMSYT
UniProt Q9H1R3, whole entry: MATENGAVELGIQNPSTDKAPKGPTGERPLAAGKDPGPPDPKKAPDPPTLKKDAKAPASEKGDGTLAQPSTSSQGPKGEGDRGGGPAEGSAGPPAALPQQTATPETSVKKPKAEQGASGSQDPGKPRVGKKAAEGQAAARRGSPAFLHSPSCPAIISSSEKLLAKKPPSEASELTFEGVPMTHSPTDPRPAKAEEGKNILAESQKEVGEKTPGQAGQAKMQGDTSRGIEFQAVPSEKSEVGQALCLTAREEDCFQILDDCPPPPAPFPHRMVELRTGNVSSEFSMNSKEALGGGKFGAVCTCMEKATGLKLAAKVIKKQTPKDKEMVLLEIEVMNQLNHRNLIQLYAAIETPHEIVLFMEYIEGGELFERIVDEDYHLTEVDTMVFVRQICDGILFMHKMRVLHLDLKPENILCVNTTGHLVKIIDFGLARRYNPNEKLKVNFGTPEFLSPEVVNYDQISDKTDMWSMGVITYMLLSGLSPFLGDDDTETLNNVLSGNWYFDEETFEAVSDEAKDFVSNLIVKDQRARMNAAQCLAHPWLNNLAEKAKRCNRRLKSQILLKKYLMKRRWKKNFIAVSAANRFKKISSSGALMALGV

Legend:
Assay in all cases: Full kinase panel inhibition by Example compounds 8 and 51 at 1 μM (Tables 11 to 14; kinase named in each table line)
full kinase panel [1] = molecular target: full kinase panel (Homo sapiens, UniProt O43318); details: TAK1
full kinase panel [2] = molecular target: full kinase panel (Homo sapiens, UniProt O60674); details: JAK2
full kinase panel [3] = molecular target: full kinase panel (Homo sapiens, UniProt O95819); details: HGK/MAP4K4
full kinase panel [4] = molecular target: full kinase panel (Homo sapiens, UniProt P00519); details: ABL1
full kinase panel [5] = molecular target: full kinase panel (Homo sapiens, UniProt P04626); details: ERBB2/HER2
full kinase panel [6] = molecular target: full kinase panel (Homo sapiens, UniProt P04629); details: TRKA
full kinase panel [7] = molecular target: full kinase panel (Homo sapiens, UniProt P06241); details: FYN
full kinase panel [8] = molecular target: full kinase panel (Homo sapiens, UniProt P07333); details: FMS
full kinase panel [9] = molecular target: full kinase panel (Homo sapiens, UniProt P09769); details: FGR
full kinase panel [10] = molecular target: full kinase panel (Homo sapiens, UniProt P10721); details: C-KIT
full kinase panel [11] = molecular target: full kinase panel (Homo sapiens, UniProt P11362); details: FGFR1
full kinase panel [12] = molecular target: full kinase panel (Homo sapiens, UniProt P17948); details: FLT1/VEGFR1
full kinase panel [13] = molecular target: full kinase panel (Homo sapiens, UniProt P21709); details: EPHA1
full kinase panel [14] = molecular target: full kinase panel (Homo sapiens, UniProt P29317); details: EPHA2
full kinase panel [15] = molecular target: full kinase panel (Homo sapiens, UniProt P29322); details: EPHA8
full kinase panel [16] = molecular target: full kinase panel (Homo sapiens, UniProt P29597); details: TYK2
full kinase panel [17] = molecular target: full kinase panel (Homo sapiens, UniProt P35916); details: FLT4/VEGFR3
full kinase panel [18] = molecular target: full kinase panel (Homo sapiens, UniProt P36888); details: FLT3
full kinase panel [19] = molecular target: full kinase panel (Homo sapiens, UniProt P42685); details: FRK/PTK5
full kinase panel [20] = molecular target: full kinase panel (Homo sapiens, UniProt P51451); details: BLK
full kinase panel [21] = molecular target: full kinase panel (Homo sapiens, UniProt P51957); details: NEK4
full kinase panel [22] = molecular target: full kinase panel (Homo sapiens, UniProt P53667); details: LIMK1
full kinase panel [23] = molecular target: full kinase panel (Homo sapiens, UniProt P53671); details: LIMK2
full kinase panel [24] = molecular target: full kinase panel (Homo sapiens, UniProt P54760); details: EPHB4
full kinase panel [25] = molecular target: full kinase panel (Homo sapiens, UniProt P54764); details: EPHA4
full kinase panel [26] = molecular target: full kinase panel (Homo sapiens, UniProt Q02763); details: TIE2/TEK
full kinase panel [27] = molecular target: full kinase panel (Homo sapiens, UniProt Q05397); details: FAK/PTK2
full kinase panel [28] = molecular target: full kinase panel (Homo sapiens, UniProt Q06187); details: BTK
full kinase panel [29] = molecular target: full kinase panel (Homo sapiens, UniProt Q13470); details: TNK1
full kinase panel [30] = molecular target: full kinase panel (Homo sapiens, UniProt Q13882); details: BRK
full kinase panel [31] = molecular target: full kinase panel (Homo sapiens, UniProt Q15303); details: ERBB4/HER4
full kinase panel [32] = molecular target: full kinase panel (Homo sapiens, UniProt Q15375); details: EPHA7
full kinase panel [33] = molecular target: full kinase panel (Homo sapiens, UniProt Q15569); details: TESK1
full kinase panel [34] = molecular target: full kinase panel (Homo sapiens, UniProt Q16620); details: TRKB
full kinase panel [35] = molecular target: full kinase panel (Homo sapiens, UniProt Q7L7X3); details: TAOK1
full kinase panel [36] = molecular target: full kinase panel (Homo sapiens, UniProt Q8N4C8); details: MINK/MINK1
full kinase panel [37] = molecular target: full kinase panel (Homo sapiens, UniProt Q9H1R3); details: MLCK2/MYLK2
full kinase panel [38] = molecular target: full kinase panel (Homo sapiens, UniProt Q9UF33); details: EPHA6
full kinase panel [39] = molecular target: full kinase panel (Homo sapiens, UniProt Q9Y2U5); details: MEKK2
full kinase panel [40] = molecular target: full kinase panel (Homo sapiens, UniProt Q9Y4K4); details: KHS/MAP4K5
full kinase panel [41] = details: LYN B

Cc1ccc(Nc2ncc3c(n2)C2(CC2)C(=O)N(c2cc(NC(=O)c4cccc(C(F)(F)F)c4)ccc2C)C3)cn1
kinase inhibition (residual enzyme activity) (full kinase panel [1]): ◯ (residual enzyme activity values were 40% or less, i.e., inhibited by 60% or more)
kinase inhibition (residual enzyme activity) (full kinase panel [2]): ◯ (residual enzyme activity values were 40% or less, i.e., inhibited by 60% or more)
kinase inhibition (residual enzyme activity) (full kinase panel [3]): ◯ (residual enzyme activity values were 40% or less, i.e., inhibited by 60% or more)
kinase inhibition (residual enzyme activity) (full kinase panel [4]): ◯ (residual enzyme activity values were 40% or less, i.e., inhibited by 60% or more)
kinase inhibition (residual enzyme activity) (full kinase panel [5]): ◯ (residual enzyme activity values were 40% or less, i.e., inhibited by 60% or more)
kinase inhibition (residual enzyme activity) (full kinase panel [6]): ◯ (residual enzyme activity values were 40% or less, i.e., inhibited by 60% or more)
kinase inhibition (residual enzyme activity) (full kinase panel [7]): ◯ (residual enzyme activity values were 40% or less, i.e., inhibited by 60% or more)
kinase inhibition (residual enzyme activity) (full kinase panel [8]): ◯ (residual enzyme activity values were 40% or less, i.e., inhibited by 60% or more)
kinase inhibition (residual enzyme activity) (full kinase panel [9]): ◯ (residual enzyme activity values were 40% or less, i.e., inhibited by 60% or more)
kinase inhibition (residual enzyme activity) (full kinase panel [10]): ◯ (residual enzyme activity values were 40% or less, i.e., inhibited by 60% or more)
kinase inhibition (residual enzyme activity) (full kinase panel [11]): ◯ (residual enzyme activity values were 40% or less, i.e., inhibited by 60% or more)
kinase inhibition (residual enzyme activity) (full kinase panel [12]): ◯ (residual enzyme activity values were 40% or less, i.e., inhibited by 60% or more)
kinase inhibition (residual enzyme activity) (full kinase panel [13]): ◯ (residual enzyme activity values were 40% or less, i.e., inhibited by 60% or more)
kinase inhibition (residual enzyme activity) (full kinase panel [14]): ◯ (residual enzyme activity values were 40% or less, i.e., inhibited by 60% or more)
kinase inhibition (residual enzyme activity) (full kinase panel [15]): ◯ (residual enzyme activity values were 40% or less, i.e., inhibited by 60% or more)
kinase inhibition (residual enzyme activity) (full kinase panel [16]): ◯ (residual enzyme activity values were 40% or less, i.e., inhibited by 60% or more)
kinase inhibition (residual enzyme activity) (full kinase panel [17]): ◯ (residual enzyme activity values were 40% or less, i.e., inhibited by 60% or more)
kinase inhibition (residual enzyme activity) (full kinase panel [18]): ◯ (residual enzyme activity values were 40% or less, i.e., inhibited by 60% or more)
kinase inhibition (residual enzyme activity) (full kinase panel [19]): ◯ (residual enzyme activity values were 40% or less, i.e., inhibited by 60% or more)
kinase inhibition (residual enzyme activity) (full kinase panel [20]): ◯ (residual enzyme activity values were 40% or less, i.e., inhibited by 60% or more)
kinase inhibition (residual enzyme activity) (full kinase panel [21]): ◯ (residual enzyme activity values were 40% or less, i.e., inhibited by 60% or more)
kinase inhibition (residual enzyme activity) (full kinase panel [22]): ◯ (residual enzyme activity values were 40% or less, i.e., inhibited by 60% or more)
kinase inhibition (residual enzyme activity) (full kinase panel [23]): ◯ (residual enzyme activity values were 40% or less, i.e., inhibited by 60% or more)
kinase inhibition (residual enzyme activity) (full kinase panel [24]): ◯ (residual enzyme activity values were 40% or less, i.e., inhibited by 60% or more)
kinase inhibition (residual enzyme activity) (full kinase panel [25]): ◯ (residual enzyme activity values were 40% or less, i.e., inhibited by 60% or more)
kinase inhibition (residual enzyme activity) (full kinase panel [26]): ◯ (residual enzyme activity values were 40% or less, i.e., inhibited by 60% or more)
kinase inhibition (residual enzyme activity) (full kinase panel [27]): ◯ (residual enzyme activity values were 40% or less, i.e., inhibited by 60% or more)
kinase inhibition (residual enzyme activity) (full kinase panel [28]): ◯ (residual enzyme activity values were 40% or less, i.e., inhibited by 60% or more)
kinase inhibition (residual enzyme activity) (full kinase panel [29]): ◯ (residual enzyme activity values were 40% or less, i.e., inhibited by 60% or more)
kinase inhibition (residual enzyme activity) (full kinase panel [30]): ◯ (residual enzyme activity values were 40% or less, i.e., inhibited by 60% or more)
kinase inhibition (residual enzyme activity) (full kinase panel [31]): ◯ (residual enzyme activity values were 40% or less, i.e., inhibited by 60% or more)
kinase inhibition (residual enzyme activity) (full kinase panel [32]): ◯ (residual enzyme activity values were 40% or less, i.e., inhibited by 60% or more)
kinase inhibition (residual enzyme activity) (full kinase panel [33]): ◯ (residual enzyme activity values were 40% or less, i.e., inhibited by 60% or more)
kinase inhibition (residual enzyme activity) (full kinase panel [34]): ◯ (residual enzyme activity values were 40% or less, i.e., inhibited by 60% or more)
kinase inhibition (residual enzyme activity) (full kinase panel [35]): ◯ (residual enzyme activity values were 40% or less, i.e., inhibited by 60% or more)
kinase inhibition (residual enzyme activity) (full kinase panel [36]): ◯ (residual enzyme activity values were 40% or less, i.e., inhibited by 60% or more)
kinase inhibition (residual enzyme activity) (full kinase panel [37]): ◯ (residual enzyme activity values were 40% or less, i.e., inhibited by 60% or more)
kinase inhibition (residual enzyme activity) (full kinase panel [38]): ◯ (residual enzyme activity values were 40% or less, i.e., inhibited by 60% or more)
kinase inhibition (residual enzyme activity) (full kinase panel [39]): ◯ (residual enzyme activity values were 40% or less, i.e., inhibited by 60% or more)
kinase inhibition (residual enzyme activity) (full kinase panel [40]): ◯ (residual enzyme activity values were 40% or less, i.e., inhibited by 60% or more)
kinase inhibition (residual enzyme activity) (full kinase panel [41]): ◯ (residual enzyme activity values were 40% or less, i.e., inhibited by 60% or more)
